Patent US8981106B2, “Pyrimidinecarboxamides as CXCR2 modulators” (Syntrix Biosystems, Inc., priority 2009, dated 2015)

Protein sequences, listed by entry. Tags and fused reporters are not part of them.
UniProt P25025, whole entry: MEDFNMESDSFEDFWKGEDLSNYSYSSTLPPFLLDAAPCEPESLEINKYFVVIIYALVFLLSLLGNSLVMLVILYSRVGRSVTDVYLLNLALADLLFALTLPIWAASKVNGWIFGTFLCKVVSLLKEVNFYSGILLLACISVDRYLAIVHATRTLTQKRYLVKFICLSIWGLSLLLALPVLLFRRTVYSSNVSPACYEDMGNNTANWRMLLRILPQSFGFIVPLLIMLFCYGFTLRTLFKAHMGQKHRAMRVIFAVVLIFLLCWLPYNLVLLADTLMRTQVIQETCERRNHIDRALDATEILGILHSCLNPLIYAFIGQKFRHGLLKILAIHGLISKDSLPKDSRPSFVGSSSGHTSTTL

Biological target: CXCR2 (Homo sapiens (Human), UniProt P25025)
Test: Inhibition of GROα-mediated intracellular calcium release in human neutrophils (FLIPR-3 Ca2+ mobilization)
Format: cell-based
Conditions: 25 nM GROα

## O=C(Nc1ccc(F)cc1)c1ccc(S(=O)(=O)Cc2cc(OC(F)(F)F)ccc2O)nc1
  IC50: 1.19 µM

## O=C(Nc1ccc(F)cc1)c1ccc(S(=O)(=O)Cc2ccccc2O)nc1
  IC50: 10.2 µM

## O=C(Nc1ccc(F)cc1)c1ccc([S+]([O-])Cc2cc(OC(F)(F)F)ccc2O)nc1 (centres unmarked)
  IC50: 1.23 µM

## O=C(Nc1ccc(F)cc1)c1ccc(S(=O)(=O)Cc2ccccc2)nc1
  IC50: > 10 µM

## O=C(Nc1ccc(F)cc1)c1ccc([S+]([O-])Cc2ccccc2)nc1 (centres unmarked)
  IC50: > 10 µM
